In PubChem BioAssay AID1508586 (ICCB-Longwood Screening Facility, Harvard Medical School, 2020) one finds z-score data, which are given here for one compound.

Only a part is listed here, and it is no random draw. Activity calls are given as the source filed them.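 How the source made its calls: active means mean z-score across replicates of 1.96 or higher in either the MELAS or the Rieske mutant cell line; inactive means the rest.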

The test can be described thus: MELAS cybrid and Rieske KO viability enhancers – cell-based, MELAS cybrids, Rieske KO mouse fibroblasts, CellTiter-Glo, primary screen (AID 1508586).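 Further: test concentration not given here; z relative to plate mean and SD of compound and empty wells.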 The note with it: MELAS cybrid survival, low glucose, CellTiter-Glo 48 h; stronger effect = higher value. Background: In ATP-based viability assays light output follows the ATP content of the culture.
In the case of `NC(=O)Nc1ccc([As](=O)(O)O)cc1`, the z-score is inactive: 0.0727.
